Experimental data reported in article PMC11220606, “Understanding β-strand mediated protein–protein interactions: tuning binding behaviour of intrinsically disordered sequences by backbone modification” (Chemical Science, 2024).

Chains of the proteins cited; added tags and fusions are not shown. Residues count along the entry.
UniProt P63165, 18-97: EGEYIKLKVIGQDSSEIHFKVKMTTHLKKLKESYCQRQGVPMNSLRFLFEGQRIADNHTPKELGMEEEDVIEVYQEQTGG

Columns and labels:
[1] = biological target: T1, human SUMO-1_18–97 (SUMO) (Homo sapiens, UniProt P63165); test: Fluorescence anisotropy competition assay (FAM-SIM tracer displacement from SUMO)
[2] = biological target: T1, human SUMO-1_18–97 (SUMO); test: Temperature dependence of NMR-derived exchange parameters (Van't Hoff and Eyring analysis); type: binding; set-up: human SUMO-1_18–97 (SUMO); His tag with TEV site (N, cleaved yes); made in house; settings: 25 °C, Van't Hoff fit, ± SD of fitted parameter (Monte-Carlo)
[3] = biological target: T1, human SUMO-1_18–97 (SUMO); test: Relaxation-based NMR binding kinetics (15N ZZ-exchange for tighter binders, CPMG relaxation dispersion for weaker binders)
[4] = biological target: T1, human SUMO-1_18–97 (SUMO); test: Temperature dependence of NMR-derived exchange parameters (Van't Hoff and Eyring analysis); type: binding; set-up: human SUMO-1_18–97 (SUMO); His tag with TEV site (N, cleaved yes); made in house; settings: 25 °C, ± SD of fitted parameter (Monte-Carlo)
Description: Eyring plots were obtained for the temperature-dependence of the kon and koff rates (Fig. 5d and e), from which the association/dissociation activation enthalpies (ΔH^‡ass/ΔH^‡diss), activation/dissociation entropies (TΔS^‡ass/TΔS^‡diss), and thus activation/dissociation free energies (ΔG^‡ass/ΔG^‡diss), could be determined.

CC[C@H](C)[C@H](NC(=O)[C@H](CCC(=O)O)NC(=O)[C@H](CC(N)=O)NC(=O)[C@H](CC(=O)O)NC(C)=O)C(=O)N[C@@H](CCC(=O)O)C(=O)N[C@H](C(=O)N[C@H](C(=O)N[C@H](C(=O)N[C@H](C(=O)N[C@@H](Cc1c[nH]c2ccccc12)C(=O)N[C@@H](CCC(=O)O)C(=O)N[C@@H](CCCCN)C(=O)N[C@@H](CCCCN)C(N)=O)C(C)C)[C@@H](C)CC)[C@@H](C)CC)C(C)C [Parent SIM, reference compound]
IC50 [1]: 10.7 ± 0.7 µM
TΔS, Binding (KD) [2]: 146.7 ± 2.8 kJ/mol
ΔH, Binding (KD) [2]: 113.1 ± 0.7 kJ/mol
Kd [3]: 33.6 ± 0.9 µM
koff ([3]; pH 7.4): 8.22 ± 0.08 s⁻¹
kon ([3]; pH 7.4): 245000 ± 7000 M⁻¹ s⁻¹
TΔS, Association (activation, kon) ([4]; Eyring fit): 134.6 ± 1.0 kJ/mol
TΔS, Dissociation (activation, koff) ([4]; Eyring fit): -11.9 ± 0.3 kJ/mol
ΔG, Association (activation, kon) ([4]; Eyring fit): 30.2 ± 1.2 kJ/mol
ΔG, Dissociation (activation, koff) ([4]; Eyring fit): 64.0 ± 0.4 kJ/mol
ΔH, Association (activation, kon) ([4]; Eyring fit): 164.8 ± 1.0 kJ/mol
ΔH, Dissociation (activation, koff) ([4]; Eyring fit): 52.0 ± 0.3 kJ/mol
ΔG, Binding (KD) ([4]; Van't Hoff fit): -33.6 ± 1.0 kJ/mol
